Measured values published in paper PMC5630639, “Structure-Activity Relationship Studies of β-Lactam-azide Analogues as Orally Active Antitumor Agents Targeting the Tubulin Colchicine Site” (Scientific Reports, 2017).

System: colchicine-binding site of β-tubulin
Assay: EBI competition assay
Format: cell-based, human
Conditions: 10 μM, 2 h; EBI 100 μM

`COc1cc2c(c(OC)c1OC)-c1ccc(OC)c(=O)cc1[C@@H](NC(C)=O)CC2` [colchicine] was tested, and the “formation of the EBI: β-tubulin adduct” value was “disappearance of the adduct band”.
